Experimental data from patent US9624280B2 (JANSSEN BIOTECH, INC., priority 2013, dated 2017).

Amino acid sequences for entries named in this document (tags omitted).
UniProt Q9UQD0, whole entry: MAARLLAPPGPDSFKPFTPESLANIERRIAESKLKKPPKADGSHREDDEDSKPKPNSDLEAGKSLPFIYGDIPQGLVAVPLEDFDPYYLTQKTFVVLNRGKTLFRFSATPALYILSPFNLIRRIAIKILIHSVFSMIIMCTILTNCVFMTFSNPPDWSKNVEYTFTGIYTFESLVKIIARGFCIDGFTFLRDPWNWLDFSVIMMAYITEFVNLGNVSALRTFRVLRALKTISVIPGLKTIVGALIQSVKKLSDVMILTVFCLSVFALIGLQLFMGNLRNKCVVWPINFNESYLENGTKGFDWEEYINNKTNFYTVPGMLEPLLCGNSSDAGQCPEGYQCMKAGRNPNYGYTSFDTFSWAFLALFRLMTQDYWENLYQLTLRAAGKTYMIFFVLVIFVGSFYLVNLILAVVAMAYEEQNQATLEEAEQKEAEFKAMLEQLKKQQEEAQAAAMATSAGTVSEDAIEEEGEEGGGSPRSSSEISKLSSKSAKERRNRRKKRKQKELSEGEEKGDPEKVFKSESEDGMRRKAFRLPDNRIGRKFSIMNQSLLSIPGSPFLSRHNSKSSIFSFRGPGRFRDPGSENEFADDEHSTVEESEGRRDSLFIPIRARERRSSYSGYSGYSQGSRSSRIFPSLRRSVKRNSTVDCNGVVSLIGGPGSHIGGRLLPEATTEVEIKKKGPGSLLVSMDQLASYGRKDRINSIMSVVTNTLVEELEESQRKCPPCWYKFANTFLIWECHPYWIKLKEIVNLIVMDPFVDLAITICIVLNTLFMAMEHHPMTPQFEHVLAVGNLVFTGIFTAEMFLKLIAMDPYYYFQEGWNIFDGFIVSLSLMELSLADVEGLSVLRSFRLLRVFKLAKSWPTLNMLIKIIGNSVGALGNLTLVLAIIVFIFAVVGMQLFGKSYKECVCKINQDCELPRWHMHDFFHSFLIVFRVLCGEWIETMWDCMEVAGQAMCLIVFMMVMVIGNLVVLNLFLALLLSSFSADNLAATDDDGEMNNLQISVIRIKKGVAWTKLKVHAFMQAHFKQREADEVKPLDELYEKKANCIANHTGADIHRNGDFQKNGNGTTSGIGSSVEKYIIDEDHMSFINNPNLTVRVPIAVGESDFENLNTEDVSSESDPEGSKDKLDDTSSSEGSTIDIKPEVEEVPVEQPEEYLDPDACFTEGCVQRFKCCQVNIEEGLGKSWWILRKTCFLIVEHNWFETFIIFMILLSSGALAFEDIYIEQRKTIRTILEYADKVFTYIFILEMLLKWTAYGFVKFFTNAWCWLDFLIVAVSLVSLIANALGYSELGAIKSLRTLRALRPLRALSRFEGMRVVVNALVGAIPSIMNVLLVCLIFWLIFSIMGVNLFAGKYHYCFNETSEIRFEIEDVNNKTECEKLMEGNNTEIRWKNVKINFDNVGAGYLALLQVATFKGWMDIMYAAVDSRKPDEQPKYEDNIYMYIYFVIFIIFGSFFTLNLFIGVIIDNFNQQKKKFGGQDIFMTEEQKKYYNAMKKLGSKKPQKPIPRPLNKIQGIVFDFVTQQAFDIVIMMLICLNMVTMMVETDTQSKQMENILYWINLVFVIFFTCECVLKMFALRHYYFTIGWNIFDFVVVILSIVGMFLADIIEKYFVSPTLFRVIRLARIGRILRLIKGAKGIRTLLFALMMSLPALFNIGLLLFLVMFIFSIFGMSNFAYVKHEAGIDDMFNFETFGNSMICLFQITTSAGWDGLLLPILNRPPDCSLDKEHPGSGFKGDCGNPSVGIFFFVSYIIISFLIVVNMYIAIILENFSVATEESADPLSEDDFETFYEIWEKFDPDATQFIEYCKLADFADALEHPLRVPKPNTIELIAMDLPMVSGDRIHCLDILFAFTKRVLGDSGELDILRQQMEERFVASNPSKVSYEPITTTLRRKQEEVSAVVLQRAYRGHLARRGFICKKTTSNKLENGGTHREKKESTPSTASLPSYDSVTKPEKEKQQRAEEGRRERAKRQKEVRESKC

Target: T1, human Nav1.6 (Homo sapiens, UniProt Q9UQD0)
T1 construct: expressed in transfected cells
Assay type: cell-based

Row | Substance | selectivity for Nav1.7 compared to recombinant Protoxin-II | ratio of IC50 for Nav1.6 to IC50 for Nav1.7 (selectivity)
1 | GPSCQKWMQTCDAERKCCEGFVCRLWCKKKLW-OH (cysteine pairing not given here) [NV1D2773] | improved selectivity | –
2 | GPYCQKWMWTCDSERKCCEGMVCRLWCKKKLW-OH (cysteine pairing not given here) [NV1D12, reference compound] | – | about 28 fold

No end group written: not given here.
